Source: publication PMC3506176 (Nature chemical biology, 2010)

How the values were obtained:
oxytocin receptor [1] = molecular target: T1, oxytocin receptor (Rattus norvegicus, UniProt P70536); type: binding; conditions: mammary gland patches; excess of oxytocin 1 μM
T1 sequence (P70536 1-388): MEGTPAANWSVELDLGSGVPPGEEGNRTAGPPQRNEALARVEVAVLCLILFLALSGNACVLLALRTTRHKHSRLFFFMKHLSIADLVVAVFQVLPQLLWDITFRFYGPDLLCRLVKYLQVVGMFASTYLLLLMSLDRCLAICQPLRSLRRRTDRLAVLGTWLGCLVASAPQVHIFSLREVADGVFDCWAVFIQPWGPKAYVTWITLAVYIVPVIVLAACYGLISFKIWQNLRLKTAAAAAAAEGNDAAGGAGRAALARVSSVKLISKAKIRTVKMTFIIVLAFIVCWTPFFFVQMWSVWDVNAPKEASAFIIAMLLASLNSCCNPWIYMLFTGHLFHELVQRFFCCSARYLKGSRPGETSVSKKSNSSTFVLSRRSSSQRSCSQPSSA

oxytocin receptor [2] = molecular target: T1, oxytocin receptor; assay: Dissociation kinetics of [3H]OT on native tissue membrane preparation; type: binding
oxytocin receptor [3] = molecular target: T1, oxytocin receptor; assay: Saturation binding with [3H]OT on mammary gland membrane preparation; conditions: mammary glands of lactating rats
[4] = absence of an excess of oxytocin

Effect on the FRET signal between donor and acceptor antagonists (oxytocin receptor [1])	Dissociation, two-phase exponential decay, first phase (oxytocin receptor [2]; [4])	Dissociation, two-phase exponential decay, second phase (oxytocin receptor [2]; [4])	Dissociation, one-phase exponential decay (oxytocin receptor [2]; presence of an excess of unlabeled oxytocin (1 μM))	Hill coefficient of saturation experiments (oxytocin receptor [3])	Substance
decreased					oxytocin
	2.7 ± 0.3 min	71 ± 16 min	5.48 ± 0.59 min	0.53 ± 0.01	tritiated oxytocin [[^3H]OT]
